Source: patent publication US10176292B2, “STING crystals and modulators” (MEMORIAL SLOAN-KETTERING CANCER CENTER, priority 2013, dated 2019)

Sequences of proteins named here, by UniProt entry; tags and fusion partners are left off. Residues count along the entry.
UniProt Q86WV6, 140-379 H232R: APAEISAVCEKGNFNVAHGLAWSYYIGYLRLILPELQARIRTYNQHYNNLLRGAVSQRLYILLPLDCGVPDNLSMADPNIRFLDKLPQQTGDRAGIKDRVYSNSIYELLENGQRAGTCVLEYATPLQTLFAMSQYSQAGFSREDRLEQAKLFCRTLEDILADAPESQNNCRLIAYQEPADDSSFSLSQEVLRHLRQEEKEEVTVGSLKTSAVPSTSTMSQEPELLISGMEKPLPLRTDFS

Experiments:
[1] = biological target: T1, hSTING^H232 (Homo sapiens, UniProt Q86WV6); assay: IFN-β luciferase reporter, HEK293T cells with hSTING^H232; type: cell-based; settings: digitonin permeabilization (30 min), 12 h
T1 construct: Full-length hSTING (wt and substitutions) and mSTING (wt) constructs were used for this cellular assay; expressed in transfected cells; host or cells: HEK293T

[2] = biological target: hSTING^R232 (aa 140-379) (Homo sapiens, UniProt Q86WV6, H232R); assay: ITC binding, hSTING^R232 (wt hSTING); settings: ITC

IFN luciferase reporter dose-response to cGAMP isomers [1]: lesser response
binding affinity increase for STING variants with R232 compared to H232 [2]: about 4 fold
Structure (SMILES): Nc1nc2c(ncn2[C@@H]2O[C@@H]3COP(=O)(O)O[C@H]4[C@@H](O)[C@H](n5cnc6c(N)ncnc65)O[C@@H]4COP(=O)(O)O[C@H]3[C@H]2O)c(=O)[nH]1
